Measurements taken from article PMC9062740, “The CLIP-170 N-terminal domain binds directly to both F-actin and microtubules in a mutually exclusive manner” (The Journal of Biological Chemistry, 2022).

Target: filamentous actin (F-actin) polymerized from rabbit muscle G-actin (rabbit, UniProt P68135 1-377)
Test: co-sedimentation; high-speed cosedimentation; CLIP-170 fragments 4 μM, phalloidin 0.8 μM, F-actin 0, 1, 2, 4, 8, 12, 16, 24 and 28 μM in PEM50, room temperature; apparent KD from a simple binding equation, 1:1 binding ratio assumed, Bmax set to 1
Settings: both partners purified

Kd: ~10.5 µM
B1: CLIP-170 N-terminal fragment H2 (H2 1-481) (domain or fragment)
chain: MSMLKPSGLKAPTKILKPGSTALKTPTAVVAPVEKTISSEKASSTPSSETQEEFVDDFRVGERVWVNGNKPGFIQFLGETQFAPGQWAGIVLDEPIGKNDGSVAGVRYFQCEPLKGIFTRPSKLTRKVQAEDEANGLQTTPASRATSPLCTSTASMVSSSPSTPSNIPQKPSQPAAKEPSATPPISNLTKTASESISNLSEAGSIKKGERELKIGDRVLVGGTKAGVVRFLGETDFAKGEWCGVELDEPLGKNDGAVAGTRYFQCQPKYGLFAPVHKVTKIGFPSTTPAKAKANAVRRVMATTSASLKRSPSASSLSSMSSVASSVSSRPSRTGLLTETSSRYARKISGTTALQEALKEKQQHIEQLLAERDLERAEVAKATSHVGEIEQELALARDGHDQHVLELEAKMDQLRTMVEAADREKVELLNQLEEEKRKVEDLQFRVEEESITKGDLEQKSQISEDPENTQTKLEHARIKELE
modifications: coiled-coil dimer; N-terminal His tag left out; splice form not given, canonical used (the cDNA may be the shorter 1392-aa form, which would differ only in the C-terminal coiled-coil part, after …)
